{"source": "paper PMC6598159", "about": "(ACS Central Science, 2019)", "key": {"[1]": {"assay": "Stability in human liver microsomes", "format": "in vitro ADME", "conditions": "2 μM, 40 min, in words"}, "[2]": {"assay": "Stability in mouse liver microsomes", "format": "in vitro ADME", "conditions": "2 μM, 40 min, in words"}}}
{"smiles": "[2H]C([2H])([2H])OC=C(C(=O)OC([2H])([2H])[2H])C1CC2c3[nH]c4cccc(OC([2H])([2H])[2H])c4c3CCN2CC1CC", "note": "(centres unmarked) [mitragynine-d9]", "values": [{"measurement": "stability in HLM", "setting": "[1]", "result": "unchanged"}, {"measurement": "stability in MLM", "setting": "[2]", "result": "unchanged"}]}
